pIC50: −log10 of the molar value. Like-named read-outs stand apart in the source and are kept apart here.
Target: PI3Kα H1047R (T47D cells) (Homo sapiens, UniProt P42336, H1047R)
Assay: PI3Kα cellular assay: pAKT HTRF in T47D cells after EGF stimulation
Format: cell-based
Settings: for pIC50: read-out: T47D pAKT S473 HTRF IC50 (H1047R): Average IC50, T47D cells (PI3Kα H1047R), pAKT S473 HTRF
[1] = selectivity of T47D (H1047R) over SKBR3 (WT) pAKT IC50
[2] = selectivity T47D (H1047R) over SKBR3 (WT), pAKT HTRF
[3] = 1 hr compound, 20 ng/ml EGF 10 min

The chains behind the UniProt entries cited, without tags or fusion partners.
UniProt P42336, whole entry H1047R: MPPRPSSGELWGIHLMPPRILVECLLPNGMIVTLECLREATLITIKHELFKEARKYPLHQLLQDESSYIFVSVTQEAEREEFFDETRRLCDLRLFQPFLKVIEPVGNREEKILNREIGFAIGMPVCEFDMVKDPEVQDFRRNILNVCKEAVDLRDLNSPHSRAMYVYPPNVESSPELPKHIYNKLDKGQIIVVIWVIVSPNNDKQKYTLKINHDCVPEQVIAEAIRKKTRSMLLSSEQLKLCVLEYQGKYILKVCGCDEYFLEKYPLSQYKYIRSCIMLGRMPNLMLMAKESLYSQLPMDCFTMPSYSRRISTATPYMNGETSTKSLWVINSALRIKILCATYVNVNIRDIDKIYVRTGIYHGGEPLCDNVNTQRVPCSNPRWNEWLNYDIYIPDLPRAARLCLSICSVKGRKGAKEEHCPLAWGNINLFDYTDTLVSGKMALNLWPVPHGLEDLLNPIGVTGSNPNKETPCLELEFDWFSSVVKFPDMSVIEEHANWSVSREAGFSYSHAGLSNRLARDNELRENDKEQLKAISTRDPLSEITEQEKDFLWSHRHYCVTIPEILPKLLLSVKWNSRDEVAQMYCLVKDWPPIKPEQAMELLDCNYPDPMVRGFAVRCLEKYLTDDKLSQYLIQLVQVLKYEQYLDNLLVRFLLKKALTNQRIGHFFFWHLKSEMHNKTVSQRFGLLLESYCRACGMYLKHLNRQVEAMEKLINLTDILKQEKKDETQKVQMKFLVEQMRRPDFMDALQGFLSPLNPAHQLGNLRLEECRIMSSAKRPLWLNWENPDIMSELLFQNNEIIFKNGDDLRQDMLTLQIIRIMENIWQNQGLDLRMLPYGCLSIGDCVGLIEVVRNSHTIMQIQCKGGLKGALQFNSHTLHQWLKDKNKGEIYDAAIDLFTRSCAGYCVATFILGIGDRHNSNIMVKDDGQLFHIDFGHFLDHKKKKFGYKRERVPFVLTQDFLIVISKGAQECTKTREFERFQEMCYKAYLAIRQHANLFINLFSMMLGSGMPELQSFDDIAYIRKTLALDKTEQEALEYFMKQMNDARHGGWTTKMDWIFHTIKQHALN
UniProt P27986, whole entry partner: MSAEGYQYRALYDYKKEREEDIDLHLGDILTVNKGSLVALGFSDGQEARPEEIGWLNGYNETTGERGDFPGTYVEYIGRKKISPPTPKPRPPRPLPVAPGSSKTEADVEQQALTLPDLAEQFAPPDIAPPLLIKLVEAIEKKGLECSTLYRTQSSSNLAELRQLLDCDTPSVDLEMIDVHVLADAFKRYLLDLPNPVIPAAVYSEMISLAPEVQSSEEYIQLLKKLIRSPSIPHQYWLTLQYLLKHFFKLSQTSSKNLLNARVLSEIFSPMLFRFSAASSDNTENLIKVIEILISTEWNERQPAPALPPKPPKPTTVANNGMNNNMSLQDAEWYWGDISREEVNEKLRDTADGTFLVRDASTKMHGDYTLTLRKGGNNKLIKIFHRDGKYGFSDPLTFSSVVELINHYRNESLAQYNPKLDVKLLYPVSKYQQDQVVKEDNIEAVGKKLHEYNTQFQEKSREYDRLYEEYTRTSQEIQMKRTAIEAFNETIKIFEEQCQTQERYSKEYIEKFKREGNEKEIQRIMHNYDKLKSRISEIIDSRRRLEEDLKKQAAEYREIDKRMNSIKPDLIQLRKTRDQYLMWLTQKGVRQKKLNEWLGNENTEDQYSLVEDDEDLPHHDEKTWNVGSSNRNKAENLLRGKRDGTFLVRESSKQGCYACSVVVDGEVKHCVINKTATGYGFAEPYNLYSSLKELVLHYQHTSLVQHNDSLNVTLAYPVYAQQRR

| Compound | pIC50 (EGF stimulation) | T47D pAKT S473 HTRF IC50 (H1047R): T47D (H1047R) selectivity over SKBR3 (WT) [1] | T47D pAKT S473 HTRF IC50 (H1047R): T47D (H1047R) selectivity over SKBR3 (WT) [2] | pIC50 [3] |
| --- | --- | --- | --- | --- |
| Cc1cc([C@H](C)Nc2ccccc2C(N)=O)c2nc(-c3ccc4c(c3)c(C)nn4C3CC3)c(C)c(=O)n2c1 | 6.30 to 7.00 | A (A denotes >20-fold) | – | – |
| Cc1cc([C@@H](C)Nc2ccccc2S(N)(=O)=O)c2nc(N3Cc4ccccc4C3)c(C3CC3)c(=O)n2c1 | 6.30 to 7.00 | A (A denotes >20-fold) | – | – |
| Cc1cc(C(C)Nc2ccccc2S(N)(=O)=O)c2nc(-c3ccc(C4CC4)nc3)c(C3CC3)c(=O)n2c1 (centres unmarked) | 6.30 to 7.00 | – | A (A denotes >20-fold) | – |
| Cc1cc(C(C)Nc2ccccc2C(=O)O)c2nc(N3CC4(COC4)C3)cc(=O)n2c1 (centres unmarked) | – | – | C (C denotes ≤5-fold) | < 5.70 |
| Cc1cc(C(C)Nc2ccccc2C(=O)O)c2nc(N3CC4(CCOC4)C3)cc(=O)n2c1 (centres unmarked) | – | – | – | 5.70 to 6.30 |
| Cc1cc([C@@H](C)Nc2cccc3c2C(=O)NS3(=O)=O)c2nc(N3Cc4ccccc4C3)cc(=O)n2c1 | < 5.70 | – | C (C denotes ≤5-fold) | – |
| Cc1cc(C(C)Nc2ccccc2C(=O)O)c2nc(-c3ccc4c(c3)c(N)nn4C3CC3)cc(=O)n2c1 (centres unmarked) [Compound 870] | 6.30 to 7.00 | A (A denotes >20-fold) | – | – |
| Cc1cc(C(C)Nc2ccccc2S(N)(=O)=O)c2nc(-c3cccc(F)c3)c(C)c(=O)n2c1 (centres unmarked) [Compound 1248] | 6.30 to 7.00 | – | A (A denotes >20-fold) | – |
| Cc1cc([C@@H](C)Nc2ccccc2C(=O)O)c2nc(N3Cc4ccccc4C3)c(C#N)c(=O)n2c1 | > 7.00 | – | A (A denotes >20-fold) | – |
| Cc1cc([C@H](C)Nc2ccc(C(F)(F)F)nc2C(=O)O)c2nc(-c3cccc(F)c3)c(C)c(=O)n2c1 | < 5.70 | – | C (C denotes ≤5-fold) | – |
| Cc1cc([C@H](C)Nc2ccccc2C(=O)O)c2nc(-c3ccc4c(c3)c(C)nn4C3CC3)c(C)c(=O)n2c1 | < 5.70 | C (C denotes ≤5-fold) | – | – |
| Cc1cc([C@@H](C)Nc2ccccc2C(=O)O)c2nc(-c3ccc4c(n3)c(C)nn4C)c(C)c(=O)n2c1 | 6.30 to 7.00 | A (A denotes >20-fold) | – | – |
| Cc1cc([C@@H](C)Nc2ccccc2C(=O)O)c2nc(N3C[C@H]4C[C@@H](C5CCN(S(=O)(=O)N(C)C)CC5)C[C@H]4C3)cc(=O)n2c1 | 6.30 to 7.00 | A (A denotes >20-fold) | – | – |
| Cc1cc([C@@H](C)Nc2ccccc2C(=O)O)c2nc(-c3ccnc(C)c3)c(C)c(=O)n2c1 | > 7.00 | – | A (A denotes >20-fold) | – |
| Cc1cc(C(C)Nc2ccccc2C(C)(O)C(F)(F)F)c2nc(-c3ccc(F)cc3)c(C)c(=O)n2c1 (centres unmarked) | 5.70 to 6.30 | – | – | – |
| Cc1cc([C@H](C)Nc2ccc(F)cc2C(=O)O)c2nc(-c3ccnc(C4CC4)c3)c(C)c(=O)n2c1 | > 7.00 | – | A (A denotes >20-fold) | – |
| COc1cc(-c2cc(=O)n3cc(C)cc([C@@H](C)Nc4ccccc4C(=O)O)c3n2)ccn1 | – | – | A (A denotes >20-fold) | 6.30 to 7.00 |
| Cc1cc([C@@H](C)Nc2ccccc2C(=O)O)c2nc(-c3cc(C)c4oc(=O)[nH]c4c3)cc(=O)n2c1 | – | – | A (A denotes >20-fold) | > 7.00 |
| Cc1cc([C@@H](C)Nc2ccccc2C(=O)O)c2nc(-c3cccnc3)c(C3CC3)c(=O)n2c1 | > 7.00 | – | A (A denotes >20-fold) | – |
| Cc1cc([C@H](C)Nc2ccccc2C(=O)O)c2nc(-c3ccnc(C4CC4)n3)c(C)c(=O)n2c1 | > 7.00 | – | C (C denotes ≤5-fold) | – |
| Cc1cc([C@H](C)Nc2cnccc2C(=O)O)c2nc(N3CCOCC3)cc(=O)n2c1 | – | – | C (C denotes ≤5-fold) | < 5.70 |
| Cc1cc(C(C)Nc2ccccc2S(N)(=O)=O)c2nc(-c3ccnc(C4CC4)c3)c(C)c(=O)n2c1 (centres unmarked) [Compound 1096] | 6.30 to 7.00 | – | A (A denotes >20-fold) | – |
| Cc1cc([C@H](C)Nc2ccccc2C(=O)O)c2nc(N3CC4(CCOC4)C3)cc(=O)n2c1 | – | – | – | 5.70 to 6.30 |
| Cc1cc(C(C)Nc2ccccc2C(=O)O)c2nc(-c3ccc(F)cc3)c(C#N)c(=O)n2c1 (centres unmarked) [Compound 1260] | > 7.00 | A (A denotes >20-fold) | – | – |
| Cc1cc(C(C)Nc2ccccc2C(=O)O)c2nc(OC3CCOCC3)c(C)c(=O)n2c1 (centres unmarked) | > 7.00 | – | A (A denotes >20-fold) | – |
